The experiment deals with T1, sigma-1 receptor (Mus musculus, UniProt O55242).
T1 construct: gene Sigmar1; native receptor in wild-type mouse brain crude synaptosomal membranes (P2 fraction)
Put plainly: [3H](+)-pentazocine competition radioligand binding in mouse brain membranes.

Protein sequences, listed by entry. Tags and fused reporters are not part of them.
UniProt O55242, whole entry: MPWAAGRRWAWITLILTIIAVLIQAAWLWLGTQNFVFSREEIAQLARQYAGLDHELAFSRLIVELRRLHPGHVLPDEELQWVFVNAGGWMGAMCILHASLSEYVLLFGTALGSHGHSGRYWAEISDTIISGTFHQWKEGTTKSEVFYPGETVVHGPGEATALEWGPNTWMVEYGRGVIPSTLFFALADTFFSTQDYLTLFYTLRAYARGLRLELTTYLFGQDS

Results on one compound are retold here after PMC5122889, “Sigma-1 Receptor Agonism Promotes Mechanical Allodynia After Priming the Nociceptive System with Capsaicin” (Scientific Reports, 2016).

For orientation: IC50 means the concentration needed to halve the response being measured. Low readings indicate higher potency, high ones lower potency.

As for `CC(C)=CCN1CC[C@]2(C)c3cc(O)ccc3C[C@H]1[C@H]2C` [PTZ, (+)-pentazocine], the IC50 worked out at 6.74 ± 0.37 nM.
